Data reported in patent publication US9796710B2, “Dihydropyrrolopyridine inhibitors of ROR-gamma” (Vitae Pharmaceuticals, Inc., priority 2014, dated 2017).

The chains behind the UniProt entries cited, without tags or fusion partners. Residues count along the entry.
UniProt P51449, 269-508: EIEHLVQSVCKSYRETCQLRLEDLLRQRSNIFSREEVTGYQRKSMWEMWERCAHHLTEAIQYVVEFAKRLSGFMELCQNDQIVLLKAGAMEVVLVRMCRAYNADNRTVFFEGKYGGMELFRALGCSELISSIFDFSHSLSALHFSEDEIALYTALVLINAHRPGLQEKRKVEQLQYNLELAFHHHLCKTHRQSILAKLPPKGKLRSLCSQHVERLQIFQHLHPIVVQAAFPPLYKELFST

Biological target: recombinant RORγ Ligand Binding Domain (LBD) protein (Homo sapiens (Human), UniProt P51449)
Experiment: Radio-Ligand RORγ Binding Assay (Assay 1)
Conditions: cell-free competition with 25-hydroxy [26,27-3H]-cholesterol; read-out: RORγ Binding Ki Range* (nM) (Assay 1)

Ki: 100 to 1000 nM
Structure (SMILES): CC[C@H]1c2ncc(C(=O)N[C@@H](CO)c3ccc(S(=O)(=O)CC)cn3)cc2CN1C[C@@H]1CC[C@@H](C(F)(F)F)OC1 (single isomer, unassigned) [Compound 6]
